# Ab-14 light chain CDR variants: yeast mating affinities

The measurements come from Engelhart et al. 2022 (doi:10.1038/s41597-022-01779-4) through the FLAb antibody collection.

Antigen: PDVDLGDISGINAS, a 14-residue peptide of the SARS-CoV-2 spike HR2 region.

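Variants in AAYL50 differ from the parent at up to three CDR positions; double and triple changes were sampled at random. The assay is AlphaSeq: two haploid yeast populations carry antibody and antigen on their surface. The frequency of each diploid, read from paired DNA barcodes, reflects how well the two displayed proteins bind. A regression on co-assayed BCL2-family reference pairs converts the normalised counts of each replicate to an apparent Kd. Each pool was mated in three replicate cultures.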

Each scFv is VH, the linker GGGGSGGGGSGGGGS, VL, as in the parent Ab-14, and differs from it in the CDRs of the light chain only.
VH: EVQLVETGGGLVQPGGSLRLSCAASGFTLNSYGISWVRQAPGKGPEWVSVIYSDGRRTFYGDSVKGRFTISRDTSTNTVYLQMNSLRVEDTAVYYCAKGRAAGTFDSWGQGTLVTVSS
VL: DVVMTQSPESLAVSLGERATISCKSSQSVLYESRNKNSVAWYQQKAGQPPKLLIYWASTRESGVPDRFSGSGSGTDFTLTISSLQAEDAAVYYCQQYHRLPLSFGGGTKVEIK

Variants are written as CDR1, CDR2 and CDR3 of the light chain (limits as in the source). Parent: KSSQSVLYESRNKNSVA, WASTRES, QQYHRLPLS. Values are log10 of the apparent Kd in nM; lower means stronger binding. Where no diploid with the target was found in that replicate, the entry reads "n.d.": below detection, most likely a poor binder, though not proof of it. For reference, the parent read 0.65 as the reference entry and 1.68 as a member of this library. Empty control strains, which show no peptide, gave a signal in 18% of pairings with library AAYL50; the median was 4.19 and 95% of these signals were weaker than 2.99. No background was subtracted. Also given: how often the same scFv was detected with the empty control strains, with their mean in brackets.

CDR-L1 | CDR-L2 | CDR-L3 | replicates, log10 nM | signal with controls
KSSQSVLYESRYKNSVA | WQSTRES | QQYHRLPLY | n.d. / n.d. / n.d. | 0/9
KSSQSVLYESENKNSVA | WASTRES | QQYHALNLS | n.d. / n.d. / n.d. | 0/9
KSQMSVLVESRNKNSVA | WASTRES | QQYHRLPLS | 0.50 / 0.68 / 0.62 | 0/9
KSSQSLKYESRNKNSVA | WASTRES | YQYHRLPLS | n.d. / n.d. / n.d. | 1/9 (2.86)
KSSSSVLYETRNKNSVA | WASTRES | QQYHRLPLS | 0.99 / 1.25 / 1.11 | 1/9 (4.53)
KSSQSVLYESRNKNSVA | WARDPES | QQYHRLPLS | n.d. / 4.01 / n.d. | 3/9 (4.55)
KSSQSVLYESRNANSVA | WAHTGES | QQYHRLPLS | 3.80 / n.d. / n.d. | 2/9 (3.94)
KSSQSVLYESQNRNSVA | RASTRES | QQYHRLPLS | n.d. / n.d. / n.d. | 0/9
KSSQSVLYESRNKNSVA | CASTRES | QQYVRLQLS | 1.57 / 1.67 / 2.68 | 1/9 (3.80)
KSSQSVLYESRNKNSQA | WASTVES | QQYHRLPLP | 4.38 / n.d. / n.d. | 4/9 (4.17)
KSKQSVLYESRHKNSPA | WASTRES | QQYHRLPLS | n.d. / n.d. / n.d. | 0/9
KFSQSDLMESRNKNSVA | WASTRES | QQYHRLPLS | 0.14 / 0.46 / 0.29 | 1/9 (5.60)
KSQQSVLYESRNKNSVA | WASTRES | QQRHRYPLS | n.d. / 4.35 / 3.83 | 2/9 (4.07)
KSSTSVLYESRNKNRVA | WASTRES | QHYHRLPLS | n.d. / n.d. / 4.59 | 2/9 (4.56)
KSSQRVAYESRNKNSVA | VASTRES | QQYHRLPLS | 4.10 / 3.91 / n.d. | 2/9 (3.70)
KSSQSVLYESREKNSVA | WASTRES | QQYHRLPYS | n.d. / n.d. / n.d. | 0/9
KSSQSVLYESRNKNSVA | WAITRES | QQYHRLPLS | 2.41 / 2.20 / 1.92 | 0/9
KSSQSVLYESRNFNSVA | WASTRES | KQNHRLPLS | 3.07 / 2.81 / 2.97 | 4/9 (4.63)
SKSQSVLYESRNRNSVA | WASTRES | QQYHRLPLS | 3.58 / 1.88 / 2.79 | 0/9
KISQSVTYESRNKNSDA | WASTRES | QQYHRLPLS | 4.28 / n.d. / n.d. | 2/9 (4.00)
KSSQSVLYESRNKNSTA | WACTRES | QQYHRLTLS | n.d. / n.d. / n.d. | 2/9 (4.00)
KSSQSVLYESRGKNSVA | WASTRES | QQYHRLTLQ | n.d. / n.d. / n.d. | 1/9 (3.83)
KSSQSVLYESRNKNSVA | WASTRES | QTYHRCPLS | n.d. / n.d. / n.d. | 1/9 (3.06)
DSMQSVLYESRNKNSVA | WASTRES | QQWHRLPLS | n.d. / n.d. / n.d. | 4/9 (3.79)
KSSQSVLYESRNKNSVL | WASTRES | QQLDRLPLS | 4.63 / 3.80 / 5.35 | 9/9 (4.59)
KSSQSVCTESRNKNSVA | WASTRES | QQYHRLPLS | 0.77 / 1.17 / 1.04 | 3/9 (3.86)
KSSQSVLYEDRNKNSVA | WASTRES | QQYHRLEES | 0.20 / 0.71 / 0.21 | 5/9 (3.97)
KSSQSVLYELRNKNSVA | WTSTRES | QQYHRFPLS | 3.95 / 2.70 / 3.60 | 3/9 (4.50)
KCSQSVLYNNRNKNSVA | WASTRES | QQYHRLPLS | 0.82 / 0.93 / 0.78 | 0/9
KSSNSVLYESRNKNEVA | WISTRES | QQYHRLPLS | 3.35 / n.d. / n.d. | 0/9
KSSQSVLYESRNKNSVA | WASTRKS | QQYTRLPLF | n.d. / n.d. / n.d. | 1/9 (4.61)
KSSQSVLYESRNKNSVA | WASTRTS | QPYHRLPSS | 1.61 / 1.58 / 2.03 | 1/9 (3.04)
KSSQSVLYESRNKNSPA | WASTRES | KQCHRLPLS | 4.13 / n.d. / n.d. | 2/9 (3.48)
ESSQSVLLESRNKNSVA | WASTRES | QQCHRLPLS | 3.27 / 3.06 / 3.61 | 1/9 (5.12)
KTSQSVLYHSRNKNSVA | WHSTRES | QQYHRLPLS | n.d. / 3.75 / n.d. | 1/9 (3.96)
KSSQSVLYESRNKNSYA | WASTRES | QPYHRLQLS | n.d. / 3.09 / n.d. | 2/9 (4.22)
KSSQSVLRESRNKNSVC | WAVTRES | QQYHRLPLS | n.d. / n.d. / n.d. | 0/9
KSRQSVLYESRNKNSVA | WARTREN | QQYHRLPLS | 5.08 / n.d. / 3.94 | 4/9 (3.38)
KSSQSVLYESRNKNSVA | HWSTRES | QQYHRLPLM | n.d. / n.d. / 3.13 | 0/9
KSDISVLYESRNKNSVA | WASTRES | WQYHRLPLS | n.d. / n.d. / n.d. | 1/9 (3.83)
MSSQSVLYESRNKNIVA | WASTRES | QQLHRLPLS | n.d. / n.d. / n.d. | 0/9
KSSYSVLYESRNKHSVA | WASTRES | QLYHRLPLS | 2.31 / 2.17 / 2.22 | 1/9 (4.25)
KSSQSVLYEWRNKNSVA | WASTRES | QQYHRLILE | n.d. / n.d. / n.d. | 0/9
KSSQSLLYFSRNKNSVA | WASTRES | QQYHRLFLS | n.d. / n.d. / n.d. | 1/9 (3.90)
KSSQSVLYESRNKNSRM | WASTRES | QQYQRLPLS | n.d. / n.d. / n.d. | 0/9

Again, the first 2 entries without any signal:

CDR-L1	CDR-L2	CDR-L3	replicates, log10 nM	signal with controls
KSSQSVLYESRYKNSVA	WQSTRES	QQYHRLPLY	n.d. / n.d. / n.d.	0/9
KSSQSVLYESENKNSVA	WASTRES	QQYHALNLS	n.d. / n.d. / n.d.	0/9